# Earlier results in paper PMC3203879 (PLoS ONE, 2011).
# Biological target: thrombin
# Conditions: cited from earlier work
compound,measurement,value
CC1CNc2c(cccc2S(=O)(=O)N[C@@H](CCCNC(=N)N)C(=O)N2CC[C@@H](C)C[C@@H]2C(=O)O)C1 (stereo partly shown) [argatroban],Ki,3.2 nM
